Laboratory results: ChEMBL document CHEMBL3044873, “Aryl N, N-Dimethylcarbamates, Synergists for Organophosphorus Insecticides against Organophos-phorusresistant Rice Stem Borers” (J Pestic Sci, 1990)

Tested on: Chilo suppressalis
Experiment: Potentiation of fenitrothion-induced insecticidal activity against OP-resistant Chilo suppressalis Hata-f (rice stem borer) assessed as synergistic ratio at 1:10 fenitrothion to compound ratio relative to fenitrothion alone

CN(C)C(=O)Oc1cccnc1
fold change (FC): 9.1
